pIC50: −log10 of the molar value. Activity calls are given as the source filed them. No rule for the calls is given here.
Tested on: HEK-293T NF-kB luciferase reporter counterscreen, luminescence
Test: NF-kB reporter inhibition in HEK-293T, dose response, counter-screen for T-cell antigen receptor NF-kB inhibitors, HEK-293T cells, luminescence (AID 489041)

Structure (SMILES)	IC50	pIC50
Cc1ccnc2c1ccc1cccnc12	inactive: > 80 µM	
O=c1c2ccccc2nc(/C=C/c2ccc([N+](=O)[O-])o2)n1-c1ccc(O)cc1		5.22
CC[n+]1c(/C=C/N(C)c2ccccc2)oc2ccccc21		5.21
